Earlier results on one molecule are cited in article PMC9945863 (2023).

Usually pKa stands for the negative logarithm of the acid dissociation constant.

The conditions of this series: heterocyclic nitrogen basicity; cited from earlier work.

With `c1c[nH]cn1` [imidazole], the pKa is recorded as 14.5.
